Patent US10766893B2 (priority 2017, dated 2020)

Sequences of proteins named here, by UniProt entry; tags and fusion partners are left off. A change or cut given only in a name is not applied to a line headed by its entry.
UniProt Q14123, whole entry: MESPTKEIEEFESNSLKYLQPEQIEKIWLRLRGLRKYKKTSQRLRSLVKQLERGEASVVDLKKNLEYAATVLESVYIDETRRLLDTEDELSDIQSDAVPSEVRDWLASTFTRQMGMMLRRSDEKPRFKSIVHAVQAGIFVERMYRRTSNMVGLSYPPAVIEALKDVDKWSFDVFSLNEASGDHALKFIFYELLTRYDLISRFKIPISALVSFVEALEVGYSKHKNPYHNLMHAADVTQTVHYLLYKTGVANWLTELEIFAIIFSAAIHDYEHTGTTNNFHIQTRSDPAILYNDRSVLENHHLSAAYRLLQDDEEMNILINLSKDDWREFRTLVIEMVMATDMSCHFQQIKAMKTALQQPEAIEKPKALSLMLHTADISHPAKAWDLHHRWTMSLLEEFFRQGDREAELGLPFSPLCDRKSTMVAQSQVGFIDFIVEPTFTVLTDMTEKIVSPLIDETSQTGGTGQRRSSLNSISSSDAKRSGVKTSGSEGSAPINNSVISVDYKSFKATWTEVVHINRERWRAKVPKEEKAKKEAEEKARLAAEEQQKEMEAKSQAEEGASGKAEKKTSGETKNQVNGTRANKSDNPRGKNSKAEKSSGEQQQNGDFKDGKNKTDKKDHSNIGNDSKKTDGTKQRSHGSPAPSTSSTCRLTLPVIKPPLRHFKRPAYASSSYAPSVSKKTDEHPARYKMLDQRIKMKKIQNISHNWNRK
UniProt Q01064: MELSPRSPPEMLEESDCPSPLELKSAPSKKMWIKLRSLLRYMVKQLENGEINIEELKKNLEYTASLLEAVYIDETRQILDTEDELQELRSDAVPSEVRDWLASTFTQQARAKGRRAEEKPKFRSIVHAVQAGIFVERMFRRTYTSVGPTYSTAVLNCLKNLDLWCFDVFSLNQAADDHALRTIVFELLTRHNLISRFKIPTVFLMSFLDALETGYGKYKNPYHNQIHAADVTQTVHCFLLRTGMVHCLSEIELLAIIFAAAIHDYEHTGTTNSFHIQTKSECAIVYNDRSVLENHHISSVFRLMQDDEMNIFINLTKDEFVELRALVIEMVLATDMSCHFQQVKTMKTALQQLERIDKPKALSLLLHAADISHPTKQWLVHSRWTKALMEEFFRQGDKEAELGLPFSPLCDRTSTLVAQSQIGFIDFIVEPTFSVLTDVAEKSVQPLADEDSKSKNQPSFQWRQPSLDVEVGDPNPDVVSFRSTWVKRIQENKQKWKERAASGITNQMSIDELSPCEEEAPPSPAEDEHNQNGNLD

How the values were obtained:
[1] = biological target: PDE1C (Homo sapiens (Human), UniProt Q14123); format: biochemical; conditions: 15 nM tritium labelled cAMP, 1 hr at room temperature
From the text: (§1) Table 1 lists the IC50 value for inhibition of PDE1 by the compounds of the invention. […] PDE1 assays are described in the Experimental Section.

[2] = biological target: PDE1B (Homo sapiens (Human), UniProt Q01064); experiment: biochemical; conditions: IC50 (nM), 15 nM tritium labelled cAMP, 1 hr at room temperature
From the text: as §1

Structure (SMILES)	IC50 [1]	IC50 [2]
CCOc1ncccc1-c1cc(NCc2cccn3cnnc23)c2c(n1)c(C)nn2C(C)C [Example 3a, 5-(2-ethoxy-3-pyridyl)-1-isopropyl-3-methyl-N-([1,2,4]triazolo[4,3-c]pyridin-8-ylmethyl)pyrazolo[4,3-b]pyridin-7-amine]	16 nM	–
Cc1nc2c(-c3cc(NCc4cnn(C)c4)c4c(n3)c(C)nn4C(C)C)cccc2o1 [Example 35b, 1-isopropyl-3-methyl-5-(2-methyl-1,3-benzoxazol-4-yl)-N-[(1-methylpyrazol-4-yl)methyl]pyrazolo[4,3-b]pyridin-7-amine]	–	7.8 nM
